According to patent publication US12559750B2, “Methods and compositions for treatment of polycystic kidney disease” (Regulus Therapeutics Inc., priority 2021, dated 2026):

Experiment: Metabolism of RG-NG-1015 in vitro and in vivo (HPLC-TOF)
Conditions: kidney and liver lysates, serum (mouse, monkey, human); CD-1 mice and monkeys in vivo; in words

## ASGSCMAFCFUFUMUSAS [RG-NG-1015]
  metabolism: undergoes sequential hydrolysis from both 3′ and 5′ ends to produce chain-shortened metabolites
